One assay addresses Duck egg lysozyme (DEL). In words: bio-layer interferometry. To be noted: parent: est. 2.5e7 M-1; read off a plot. In general terms: BLI is a label-free optical method that tracks binding on a fibre tip over time.
For another assay, the target named is Flex^R101D lysozyme (UniProt P00698). Description: bio-layer interferometry. The note with it: read off a plot.

For twelve substances, Ka results are on record in paper PMC7486785 (Proceedings of the National Academy of Sciences of the …, 2020).

Where only a bound is given, the exact number is not on record here.

With Hy10 Fab Y53F; Y58F, the Ka in the assay with Duck egg lysozyme (DEL) worked out at 1e+08 M⁻¹.
Still for that read-out and setting: the same measure for Hy10 Fab S52R; Y53F: under 100000 M⁻¹.
Turning to Hy10 Fab S56R, in the assay with Flex^R101D lysozyme (parent: est. […]e7 M-1), the Ka was found to be 3.7e+06 M⁻¹.
For Hy10 Fab Y58F, in the assay with Duck egg lysozyme (DEL), the Ka came to 9e+07 M⁻¹.
As to Hy10 Fab Y33H, the Ka with Flex^R101D lysozyme (parent: est. 1.7e7) is 1.8e+07 M⁻¹.
Turning to Hy10 Fab S52R, the Ka in the assay with Duck egg lysozyme (DEL) and in the assay with Flex^R101D lysozyme (parent: est. 1.7e7) was under 100000 M⁻¹ each time.
Take Hy10 Fab I29F; S52T: in the assay with Duck egg lysozyme (DEL), the Ka is 1.4e+08 M⁻¹.
With Hy10 Fab S56Y, the Ka with Flex^R101D lysozyme (parent: est. […]e7 M-1) was 3.5e+07 M⁻¹; with Flex^R101D lysozyme (parent: est. 1.7e7), 3.4e+07 M⁻¹.
Taken in the same sequence, the figures for Hy10 Fab L4F were 6.3e+06 M⁻¹ and 5.6e+06 M⁻¹.
On the same counts, the results for Hy10 Fab S31N are 1.4e+07 M⁻¹ and 1.4e+07 M⁻¹.
Regarding Hy10 Fab S52T; Y58F, the Ka with Duck egg lysozyme (DEL) is 3.6e+08 M⁻¹.
On the same count and under the same terms, the same measure for Hy10 Fab I29F; S52T; Y53F; Y58F: 6.8e+09 M⁻¹.
